Test: Evaluated for the binding affinity to porcine choroid plexus at 5-hydroxytryptamine 2C receptor binding site by using [3H]-MES as a radioligand.

CN1C[C@@H](NS(=O)(=O)N(C)C)C[C@@H]2c3cccc4c3c(cn4C)C[C@H]21 [MESULERGINE]
Ki: 1.5 nM

— BindingDB's records for doi:10.1021/jm00384a001 (1987)
